# Apparent affinities of Ab-14 variants for a coronavirus HR2 peptide

Values reported by Engelhart et al. 2022, doi:10.1038/s41597-022-01779-4 (FLAb copy).

Antigen: PDVDLGDISGINAS, a 14-residue peptide of the SARS-CoV-2 spike HR2 region.

Parent: Ab-14, a human scFv built as VH, three GGGGS repeats, VL. Only the CDRs of the light chain vary.
VH: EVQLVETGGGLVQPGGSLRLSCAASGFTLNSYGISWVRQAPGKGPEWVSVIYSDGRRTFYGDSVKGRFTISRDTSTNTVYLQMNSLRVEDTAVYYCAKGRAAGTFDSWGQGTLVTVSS
VL: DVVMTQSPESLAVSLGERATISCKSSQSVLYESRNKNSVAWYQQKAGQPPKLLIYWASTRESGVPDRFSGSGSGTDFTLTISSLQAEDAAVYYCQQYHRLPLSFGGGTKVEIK

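The parent was found by panning a naive human phage display library on the peptide. Library AAYL50 holds single substitutions and randomly drawn double and triple substitutions in the CDRs. The assay is AlphaSeq: two haploid yeast populations carry antibody and antigen on their surface. The frequency of each diploid, read from paired DNA barcodes, reflects how well the two displayed proteins bind. Each replicate has its own calibration line, from reference interactions of the BCL2 family. Each pool was mated in three replicate cultures.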

Positions count from residue 1 of the parent VL; K24E puts E in place of K.
Affinities are written as log10 Kd with Kd in nM; a lower number is a better binder.
A mean of the replicates is given; it leaves out those without a signal.
"nd" marks a missing value. The strain was present, yet no cells mated with the target were sequenced in that replicate, which points to weak or no binding.

| # | changes | replicates, log10 nM | mean log10 Kd (nM) | empty controls |
|---|---|---|---|---|
| 1 | K24E/A40F/P101L | nd nd nd | nd | 0/9 |
| 2 | Y31W/R99V/L102Q | nd nd nd | nd | 0/9 |
| 3 | E61L/S62Y/Q96T | 2.22 2.20 2.89 | 2.44 | 1/9 (5.26) |
| 4 | S38C/S62T/Y97W | 1.89 2.27 2.07 | 2.08 | 2/9 (4.33) |
| 5 | Q27N/S28F/Y31K | 2.20 2.43 2.87 | 2.50 | 1/9 (4.81) |
| 6 | A57F/Q95C | nd nd nd | nd | 1/9 (2.89) |
| 7 | L30S/T59Y/Q95L | nd 2.85 1.85 | 2.35 | 0/9 |
| 8 | S25I/T59P/Q96V | nd nd nd | nd | 1/9 (3.54) |
| 9 | K36D/R60Q/L100M | 3.71 3.60 2.87 | 3.39 | 1/9 (2.68) |
| 10 | N35R/A57H/E61K | 5.05 5.38 nd | 5.21 | 2/9 (4.21) |
| 11 | K24I/Q95N/S103G | nd nd nd | nd | 0/9 |
| 12 | E32P/R99C/P101Y | 0.67 0.96 0.79 | 0.81 | 2/9 (3.19) |
| 13 | N37V/W56H/S58N | 1.45 1.42 1.58 | 1.49 | 9/9 (4.49) |
| 14 | S28A/H98W/S103D | 2.22 2.02 nd | 2.12 | 0/9 |
| 15 | R34M/S62F/Q96E | 1.91 1.88 2.00 | 1.93 | 7/9 (5.14) |
| 16 | S26D/N35P/E61V | 0.44 0.74 0.52 | 0.57 | 0/9 |
| 17 | E32S/R60C/S62R | 5.02 nd nd | 5.02 | 2/9 (3.85) |
| 18 | S25C/S58A/E61L | 1.66 1.91 2.19 | 1.92 | 0/9 |
| 19 | W56Y/R60E/L102Y | nd 3.51 nd | 3.51 | 2/9 (3.42) |
| 20 | W56H/T59H/L102R | nd nd nd | nd | 1/9 (3.98) |
| 21 | S26T/Q27V/V39W | nd 3.76 nd | 3.76 | 2/9 (3.84) |
| 22 | S26W/A57I/E61V | nd nd nd | nd | 0/9 |
| 23 | S28V/Y97R/R99K | nd nd 5.29 | 5.29 | 0/9 |
| 24 | Q27S/V29C/R60W | 3.34 5.16 nd | 4.25 | 2/9 (3.94) |
| 25 | S26N/W56K/L102I | 0.36 0.47 0.49 | 0.44 | 2/9 (3.51) |
| 26 | L30G/L102Q/S103E | nd nd nd | nd | 1/9 (3.61) |
| 27 | Q27V/R34L/S58Q | 1.49 1.55 1.52 | 1.52 | 1/9 (3.25) |
| 28 | S26G/Y31V/R99N | 1.85 3.94 2.02 | 2.60 | 0/9 |
| 29 | R34S/Q95V/L100Y | nd 4.51 4.86 | 4.68 | 3/9 (5.06) |
| 30 | K24A/Y97Q/S103Q | 2.32 2.36 2.99 | 2.56 | 0/9 |
| 31 | Q27F/V29W/S58D | 0.99 1.15 1.16 | 1.10 | 3/9 (4.34) |
| 32 | A57K/E61G/S62M | nd nd nd | nd | 0/9 |
| 33 | S25G/N35G/A57P | nd nd nd | nd | 2/9 (5.13) |
| 34 | N35Q/E61D/S103T | 1.13 1.23 1.56 | 1.31 | 2/9 (3.50) |
| 35 | S33A/W56D/R60L | -0.23 0.14 -0.10 | -0.06 | 4/9 (4.61) |
| 36 | R60N/E61K/Q95V | nd nd nd | nd | 0/9 |
| 37 | S28N/R34N/Y97M | 2.72 3.05 2.86 | 2.88 | 2/9 (4.20) |

Repeated from above, the 6 best binders with a signal in all replicates:

| changes | replicates, log10 nM | mean log10 Kd (nM) | empty controls |
|---|---|---|---|
| S33A/W56D/R60L | -0.23 0.14 -0.10 | -0.06 | 4/9 (4.61) |
| S26N/W56K/L102I | 0.36 0.47 0.49 | 0.44 | 2/9 (3.51) |
| S26D/N35P/E61V | 0.44 0.74 0.52 | 0.57 | 0/9 |
| E32P/R99C/P101Y | 0.67 0.96 0.79 | 0.81 | 2/9 (3.19) |
| Q27F/V29W/S58D | 0.99 1.15 1.16 | 1.10 | 3/9 (4.34) |
| N35Q/E61D/S103T | 1.13 1.23 1.56 | 1.31 | 2/9 (3.50) |

For reference, the parent read 0.65 as the reference entry and 1.68 as a member of this library.
As a blank, each scFv also met three strains without target: over library AAYL50, 18% of these pairings were detected, typically at 4.19 and seldom below 2.99. Also given: how often the same scFv was detected with the empty control strains, with their mean in brackets.